Here are results for 53 compounds from published antibiotic growth screens (doi:10.1038/s41589-023-01349-8).

The list shows a part of the results.

In this assay the test system is A. baumannii ATCC 17978. Put plainly: relative growth (fraction of control); higher = less inhibition. The conditions noted are these: 50 µM.
`Cc1ccc(S(=O)(=O)N2C[C@@H](O)COC[C@H]3O[C@H](CC(=O)NCc4ccc5c(c4)OCO5)CC[C@@H]32)cc1`: the relative growth is 0.849.

`CCCCC(=O)C1CCC(c2ccc(Cl)cc2)CC1` (stereo not drawn): the relative growth was found to be 0.772. For `C[C@@H]1CC[C@H](C)N1c1cc(C(F)(F)F)cc(C(F)(F)F)c1` the value was 1.05; for `CN1CC(=O)NC1=N`, 0.998; for `CO[C@@H]1CN(C)C(=O)c2ccc(NC(=O)C3CC3)cc2OC[C@@H](C)N(C(=O)Cc2ccccn2)C[C@@H]1C`, 1.09. For `CC1(C)CC(/C=C/c2ccccc2)=Nc2ccccc2N1`, the relative growth turned out to be 0.894. For `CC(C)(C(=O)c1cccnc1)c1cccnc1`, the relative growth came to 0.923. In turn, `C[C@H]1O[C@@H](O[C@H]2[C@@H](O)C[C@H](O[C@H]3[C@@H](O)C[C@H](O[C@H]4CC[C@]5(C)C6C[C@@H](O)[C@]7(C)[C@@H](C8=CC(=O)OC8)CC[C@]7(O)C6CC[C@@H]5C4)O[C@@H]3C)O[C@@H]2C)C[C@H](O)[C@@H]1O` (stereo partly drawn) had a relative growth of 1.07.

In turn, `O=C(C[C@H]1C=C[C@@H](NC(=O)CN2CCOCC2)[C@H](CO)O1)NCCc1ccccc1` had a relative growth of 0.953. Turning to `C=CC[C@@H](CC(=O)N[C@H](CO)Cc1ccccc1)C(=O)N[C@@H](C)COC(=O)[C@H](CC=C)CC(=O)OC(C)(C)C`, the relative growth came out at 0.839. For `O=C(C[C@H]1CC[C@H](NC(=O)c2cnccn2)[C@H](CO)O1)NCc1ccccc1F` the value was 0.941. With `Cc1ccc(S(=O)(=O)NC2=NCN(CCN3CCOCC3)CN2)cc1`, the relative growth came to 0.971. As to `O=CNC(=O)c1ccccc1C(=O)O`, the relative growth amounted to 1. For the compound `CO[C@H](CN(C)S(=O)(=O)c1ccc(F)cc1)[C@@H](C)CN([C@@H](C)CO)S(=O)(=O)c1cccc(Cl)c1`, the relative growth is 0.674. The compound `O=C(CN1CCOCC1)NCC[C@H]1CC[C@H](NC(=O)Nc2ccccc2)[C@H](CO)O1` yielded a relative growth of 0.93.

Take `CCN(CC)CCOCCOC(=O)C1(c2ccccc2)CCCC1.O=C(O)CC(O)(CC(=O)O)C(=O)O`: the relative growth amounted to 1.06. The compound `C=CC[C@@H](CC(=O)N(CCO)Cc1ccccc1)C(=O)N[C@@H](COC(=O)[C@H](CC=C)CC(=O)OC(C)(C)C)Cc1c[nH]c2ccccc12` gave a relative growth of 1.3. As for `CC(C)/N=c1\cc2n(-c3ccc(Cl)cc3)c3ccccc3nc-2cc1Nc1ccc(Cl)cc1`, the relative growth was determined as 1.05.

As to `CC(=O)NCCCS(=O)(=O)[O-].CC(=O)NCCCS(=O)(=O)[O-].[Ca+2]`, the relative growth is 1.13. For `COc1ccc(Cc2c(O)[nH]c(N)nc2=O)cc1` the value was 1.02.

As for `CN(C)C(=N)NC(=N)N.Cl`, the relative growth worked out at 1.06. As for `COC(=O)C[C@@H]1CC[C@@H]2[C@H](COC[C@@H](O)CN2S(=O)(=O)c2cn(C)cn2)O1`, the relative growth is 1.12. The compound `CN1CCc2nc(C(=O)NC3C[C@@H](C(=O)N(C)C)CC[C@@H]3NC(=O)C(=O)Nc3ccc(Cl)cn3)sc2C1.Cc1ccc(S(=O)(=O)O)cc1.O` (stereo partly drawn) displayed a relative growth of 1.15. In the case of `COc1cccc(NC(=O)N2C[C@@H](O)COC[C@@H]3O[C@H](CC(=O)NCc4ccccc4F)CC[C@H]32)c1` it was 0.976.

`COCOc1ccc2cc(Br)ccc2c1-c1c(OCOC)ccc2cc(Br)ccc12` displayed a relative growth of 3.49. In the case of `CC(C)CC#Cc1ccc2c(c1)O[C@@H](CN(C)C(=O)c1ccncc1)[C@H](C)CN([C@@H](C)CO)S2(=O)=O` it was 0.968. Compound `CCOC(=O)C(C)(C)Oc1ccc(Cl)cc1` came in with a relative growth of 1.26.

Take `O=C(C[C@@H]1CC[C@@H]2[C@H](COC[C@H](O)CN2C(=O)Nc2cccc(Cl)c2)O1)NCCCN1CCOCC1`: the relative growth was 0.772. Take `Cl.N[C@H](Cc1ccccc1)C(=O)O`: the relative growth stood at 0.938. `O=C(C[C@@H]1CC[C@H]2[C@@H](COC[C@@H](O)CN2C(=O)c2ccccc2)O1)NCCCN1CCOCC1`: the relative growth amounted to 0.875. The compound `O=C(N[C@@H]1C=C[C@@H](CC(=O)N2CCOCC2)O[C@H]1CO)c1ccc2c(c1)OCO2` registered a relative growth of 1.29. In the case of `CCC(Cc1c(I)cc(I)c(N)c1I)C(=O)O` (stereo not drawn) it was 0.945; in that of `Cc1ccc(S[C@]2(C(=O)NC(C)C)CC(=O)N(Cc3ccccc3Cl)[C@@H]2c2ccc(CO)cc2)cc1`, 0.877; in that of `CN(C)[C@H]1CS(=O)(=O)C[C@@H]1N(C)C`, 0.873. In the case of `C[C@]12CC[C@@H]3c4ccc(O)cc4CC[C@H]3[C@@H]1CC[C@@H]2OC(=O)CCC1CCCC1` it was 1.34; in that of `CCCC(=O)O`, 1.1; in that of `COc1ccc(S(=O)(=O)N[C@@H]2CC[C@@H](CC(=O)N3CCN(c4ccccc4)CC3)O[C@H]2CO)cc1`, 1.07. For the compound `O=C1C=C2CC3(O)COc4c(ccc(O)c4O)C3=C2C=C1O` (stereo not drawn), the relative growth amounted to 1.06. `O=S(=O)(NCC[C@H]1CC[C@@H](NS(=O)(=O)c2cccc(Cl)c2)[C@@H](CO)O1)c1cccc(F)c1` yielded a relative growth of 0.969. Consider `Nc1nc(=O)c2c(CCc3ccc(C(=O)N[C@@H](CCC(=O)[O-])C(=O)[O-])cc3)c[nH]c2[nH]1.[Na+].[Na+]`, for which the relative growth amounted to 1.01. For the compound `CC(=O)OCC(=O)[C@@]1(O)[C@H](OC(C)=O)CC2C3CCC4=CC(=O)C=C[C@]4(C)[C@@]3(F)[C@@H](O)C[C@@]21C` (stereo partly drawn), the relative growth came to 1.09. `O=c1nc(N2CCc3ccccc3C2)cn[nH]1`: the relative growth is 1.08.

`C[C@@H]1CN([C@H](C)CO)S(=O)(=O)c2ccc(-c3cccc(C#N)c3)cc2O[C@@H]1CN(C)C(=O)c1cccnc1` returned a relative growth of 0.966.

Consider `O=C1c2ccccc2[C@@]2(Cc3ccccc3N(Cc3ccccc3)C2=O)[C@H](c2ccc(CO)cc2)N1Cc1ccccc1C(F)(F)F`, for which the relative growth came to 0.919. For `Nc1nc(N)nc(-c2cc(Cl)ccc2Cl)n1.O=C(O)/C=C\C(=O)O` the value was 0.839; for `CO[C@H]1CN(C)C(=O)c2ccc(NS(C)(=O)=O)cc2OC[C@@H](C)N(C(=O)C2CCOCC2)C[C@H]1C`, 1.07. For `Cc1ccc(S(=O)(=O)C[C@H]2O[C@@H](n3cc(I)c(=O)[nH]c3=O)C[C@@H]2O)cc1` the value was 1.04. For `N#CC(c1ccc(Cl)cc1)c1c(Cl)cc(-n2ncc(=O)[nH]c2=O)cc1Cl` (stereo not drawn) the value was 1.09; for `COc1ccc(NC(=O)N2C[C@H](O)COC[C@H]3O[C@@H](CC(=O)NCc4ccccc4OC)CC[C@@H]32)cc1`, 0.953; for `CNC(=O)C[C@H]1CC[C@@H]2[C@H](COC[C@@H](O)CN2C(=O)c2ccc3c(c2)OCO3)O1`, 1.03. For the compound `CC1=CC(=O)[N-]S(=O)(=O)O1.[K+]`, the relative growth is 0.873. `Cc1cc(C(=O)NN)n(C(C)(C)C)n1` registered a relative growth of 0.853. For `Cl.O=C1NCC2(CCN(CCc3ccccc3)CC2)O1`, the relative growth was found to be 1.14.
